According to patent publication US6610692B1, “Thrombin inhibitors” (Merck & Co., Inc., priority 1998, dated 2003):

molecular target: human α-thrombin (Homo sapiens, UniProt P00734); assay: In vitro assay for determining proteinase inhibition: thrombin (sar-PR-pna or Z-GPR-afc substrate); assay type: biochemical; conditions: Table 2; scaffold drawing 104 with R1, R2, R3

SMILES	Ki
Cc1cc(-c2ccccc2C(C)C)cc(=O)n1CC(=O)NCc1cnc2[nH]ccc2c1	> 20 nM
Cc1cc(-c2ccccc2C(C)C)cc(=O)n1CC(=O)NCc1cc2cn[nH]c2cn1	> 20 nM
Cc1cc(-c2ccccc2C(C)C)cc(=O)n1CC(=O)NCc1cnc2[nH]cc(F)c2c1	> 20 nM
CC(=O)c1c(-c2ccccc2C(C)C)cc(C)n(CC(=O)NCc2cc3cc[nH]c3cn2)c1=O	< 20 nM
Cc1cc(-c2ccccc2C(C)C)c(O)c(=O)n1CC(=O)NCc1cc2c(Cl)c[nH]c2cn1	< 20 nM
Cc1cc(-c2ccccc2C(C)C)c(O)c(=O)n1CC(=O)NCc1cc2cc[nH]c2cn1	< 20 nM
Cc1cc(-c2ccccc2C(F)(F)F)cc(=O)n1CC(=O)NCc1cc2cc[nH]c2cn1	> 20 nM

same assay, conditions: Table 3; scaffold drawing 108 with R1, R2, R3

SMILES	Ki
Cc1cc(C(=O)N(CC(C)C)CC(C)C)c(O)c(=O)n1CC(=O)NCc1ccc2[nH]ccc2n1	< 20 nM
Cc1cc(C(=O)N2[C@H](C)CCC[C@@H]2C)c(O)c(=O)n1CC(=O)NCc1ccc2[nH]cnc2c1 (relative stereo)	< 20 nM
Cc1cc(C(=O)N2CCCCC2)c(NCCCC2CC2)c(=O)n1CC(=O)NCc1cc2cc[nH]c2cn1	< 20 nM
Cc1cc(C(=O)N2CCCCC2)c(NCC2CC2)c(=O)n1CC(=O)NCc1ccc2[nH]cnc2c1	> 20 nM
Cc1cc(C(=O)N2CCCCC2)c(NCCC2CC2)c(=O)n1CC(=O)NCc1ccc2[nH]cnc2c1	< 20 nM
CCNc1c(C(=O)N(C(C)C)C(C)C)cc(C)n(CC(=O)NCc2ccc3[nH]ccc3c2)c1=O	< 20 nM
Cc1cc(C(=O)N(CC(C)C)CC(C)C)c(O)c(=O)n1CC(=O)NCc1cc2cc[nH]c2cn1	< 20 nM
Cc1cc(C(=O)N(CC(C)C)CC(C)C)cc(=O)n1CC(=O)NCc1cc2cc[nH]c2cn1	< 20 nM
